{"sequences": {"note": "Amino acid sequences for entries named in this document (tags omitted).", "UniProt P35372, whole entry": "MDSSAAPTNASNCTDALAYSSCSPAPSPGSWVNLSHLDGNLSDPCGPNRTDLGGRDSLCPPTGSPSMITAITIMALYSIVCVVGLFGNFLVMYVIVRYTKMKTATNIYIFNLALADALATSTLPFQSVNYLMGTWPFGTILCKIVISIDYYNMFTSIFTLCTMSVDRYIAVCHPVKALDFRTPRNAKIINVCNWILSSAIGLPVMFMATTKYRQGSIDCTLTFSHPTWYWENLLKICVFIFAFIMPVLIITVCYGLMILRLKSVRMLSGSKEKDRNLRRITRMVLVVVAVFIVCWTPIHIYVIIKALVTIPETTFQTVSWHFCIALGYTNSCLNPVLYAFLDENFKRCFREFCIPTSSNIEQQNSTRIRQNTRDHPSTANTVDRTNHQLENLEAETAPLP", "UniProt P41146, whole entry": "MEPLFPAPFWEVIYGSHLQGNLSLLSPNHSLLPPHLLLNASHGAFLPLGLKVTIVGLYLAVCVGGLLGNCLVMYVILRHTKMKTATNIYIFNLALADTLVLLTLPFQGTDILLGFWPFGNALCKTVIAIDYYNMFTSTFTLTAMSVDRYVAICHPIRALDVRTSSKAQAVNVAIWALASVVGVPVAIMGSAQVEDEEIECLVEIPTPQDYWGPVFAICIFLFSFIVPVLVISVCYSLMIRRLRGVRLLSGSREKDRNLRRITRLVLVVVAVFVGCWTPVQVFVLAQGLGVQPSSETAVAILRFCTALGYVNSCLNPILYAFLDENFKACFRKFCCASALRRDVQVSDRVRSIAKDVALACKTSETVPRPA"}, "source": "ChEMBL document CHEMBL1145308", "about": "(Bioorg Med Chem Lett, 2006)", "key": {"Mu-type opioid receptor": {"molecular_target": "Mu-type opioid receptor (Homo sapiens, UniProt P35372)", "assay": "Displacement of [3H]naloxone from mu opioid receptor expressed in BHK cells"}, "Nociceptin receptor": {"molecular_target": "Nociceptin receptor (Homo sapiens, UniProt P41146)", "assay": "Displacement of [3H]NOP from human NOP receptor expressed in HEK293 cells"}}, "data": [{"smiles": "O=C1NCN(c2ccccc2)C12CCN(C1(c3ccccc3)CCCCC1)CC2", "values": [{"measurement": "IC50", "setting": "Mu-type opioid receptor", "result": 0.015, "unit": "µM"}, {"measurement": "IC50", "setting": "Nociceptin receptor", "result": 0.015, "unit": "µM"}]}]}
